B1: E3 ubiquitin-protein ligase RNF5 (Homo sapiens), Q99942 (parent)
chain: MAAAEEEDGGPEGPNRERGGAGATFECNICLETAREAVVSVCGHLYCWPCLHQWLETRPERQECPVCKAGISREKVVPLYGRGSQKPQDPRLKTPPRPQGQRPAPESRGGFQPFGDTGGFHFSFGVGAFPFGFFTTVFNAHEPFRRGTGVDLGQGHPASSWQDSLFLFLAIFFFFWLLSI

Variants of: B1
Details: with paxi_human PXN

effect of a mutation on the interaction | Variant
increasing interaction | C27A;C30A

Reference: IntAct's records for PubMed 12861019
